Target: Prothrombin (Homo sapiens, UniProt P00734)
Test: In vitro for the inhibition of thrombin

Row | IC50 [µM] | SMILES
1 | 0.89 | CCN(C(=O)C1=CCC[C@H]1C(=O)NCc1ccc(C(=N)N)cc1)C1CCCCC1
2 | 13.2 | CCN(C(=O)[C@@H]1CCC[C@H]1C(=O)NCc1ccc(C(=N)N)cc1)C1CCCCC1

Source: ChEMBL document CHEMBL1132927, “New proline mimetics: synthesis of thrombin inhibitors incorporating cyclopentane- and cyclopentenedicarboxylic acid templates in the P2 position. Binding conformation investigated by X-ray crystallography” (J Med Chem, 2000)
